Structures can show the parent of a compound that is named as a salt.
Target: 5HT2A (Homo sapiens, UniProt P28223)
Assay: 5HT2A activation (%) max at two concentrations (Table 1)
Format: cell-based

The chains behind the UniProt entries cited, without tags or fusion partners.
UniProt P28223, whole entry: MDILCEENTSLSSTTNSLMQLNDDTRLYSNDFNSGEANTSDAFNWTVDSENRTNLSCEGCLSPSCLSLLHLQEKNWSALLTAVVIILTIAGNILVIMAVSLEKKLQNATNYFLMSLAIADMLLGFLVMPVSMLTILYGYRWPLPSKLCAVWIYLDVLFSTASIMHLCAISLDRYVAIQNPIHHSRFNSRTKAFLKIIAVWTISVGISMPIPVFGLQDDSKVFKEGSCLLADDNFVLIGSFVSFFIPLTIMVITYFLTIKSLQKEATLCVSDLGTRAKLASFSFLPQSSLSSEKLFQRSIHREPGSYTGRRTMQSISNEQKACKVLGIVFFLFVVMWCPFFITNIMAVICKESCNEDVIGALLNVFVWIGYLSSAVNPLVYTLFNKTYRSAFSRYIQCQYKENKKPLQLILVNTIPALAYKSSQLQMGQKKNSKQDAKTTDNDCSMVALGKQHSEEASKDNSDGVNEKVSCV

`COc1ccc(OC)c2c1CCC(N)C2` (centres unmarked) [Compound 1-3, 5,8-dimethoxy-1,2,3,4-tetrahydronaphthalen-2-amine hydrochloride] was tested, and the “5HT2A activation (%) max @ 03 μM” value (03 μM [sic]) was 12.1% and the “5HT2A activation (%) max @ 30 μM” value (30 μM (first value of the cell)) was 67.1%.

From patent US11827580B2, “Aminotetraline activators of serotonin receptors” (ATAI Life Sciences AG, priority 2021, dated 2023)
